IC50 data for one molecule are collected here from US20210363152A1, “AMINOAZINE AMIDES” (Hoffmann-La Roche Inc., priority 2018, published 2021).

The target of the assay is Autotaxin enzyme (ATX) (Homo sapiens, UniProt Q13822). The assay can be described thus: In vitro ATX assay (enzymatic ATX inhibition, LPC 14:0 substrate, choline oxidase/HRP absorbance readout). To be noted: read-out: ATX IC50, 0.3 mM LPC 14:0, 37° C., 4 hours, absorbance 555 nm. The method, then:
• Assay buffer: 100 mM Tris-HCl, pH 9.0, 500 mM NaCl, 5 mM MgCl2, 30 μM CoCl2, 0.05% Triton X-100 • Assay buffer II: 4.5 mM 4-AAP, 2.7 mM TOOS, 21.2 U/mL HRP, 3 U/mL CO, In 50 mM Tris-HCl pH 8.0, 4.5 mM MgCl2
A compound preparation plate (Nunc 249944) was prepared by adding 30 mM stock solution (in DMSO) of test compound and performing a serial full-log dilution down to 30 nM. Two μL/well were transferred from the first compound prep plate to a compound dilution plate (Corning, 3641) and 198 μL assay buffer I was added for a […].
A 10 ng/mL solution of ATX was prepared by diluting in assay buffer I, and 80 μL/well were added to the assay plate (Corning, 3641); negative control wells contained 80 μL/well assay buffer I only (no ATX). Ten μL/well from the compound dilution plate (containing serially diluted test compound or DMSO) were added to the assay plate, which was then incubated at 37° C. for 15 minutes. A solution of LPC 14:0 was prepared in assay buffer I at 3 mM and 10 μl/well were added to the assay plate, for a final concentration of 0.3 mM LPC, and returned to 37° C. incubator for 4 hours. After 4 hour incubation, 100 μL/well of assay buffer II was added to all wells of the assay plate. The plate was incubated at RT for 15 minutes, prior to reading on FlexStation in absorbance mode, 555 nm. […]

By IC50 is commonly meant the point on the concentration scale where inhibition reaches its midpoint.

Each structure is given as a SMILES string. A value given as a limit tells only on which side of the number the result lay.

Take `O=C(c1cnc(NCc2cc(CC3CC3)cc(OC(F)(F)F)c2)nc1)N1CCC12COC2`: the IC50 was less than 100 nM.
